Data set [1] concerns RES-LTC chondrosarcoma cell line. The data set can be described thus: Modified MTT assay for metabolic activity. Type of data set: cell-based. To be noted: 1-10 mM, 48 hour timepoint, FIG. 3. How it is done:
Assays: Modified MTT assay for metabolic activity (absorbance).
Assay data analysis: Expressed as % of the positive controls for MTT and picogreen. MTT absorbance measures then normalized to the μgDNA/ml generated by the picogreen assay.
Cell cultures: RES-LTC chondrosarcoma cell line. Expresses hyaline-like chondrocyte phenotype and reliably produces large, homogeneous cell populations
Cell cultures in 96 well plates. Each compound, at a fixed concentration, was added in triplicate for each assay. MTT and picogreen assays in separate plates (assays interfere with each other). All plates treated together. Assays run at 48 hour timepoint. Microscopy performed to confirm findings.

For data set [2], the system named is rabbit stifle joints. As to the kind of experiment: Single intra-articular injection toxicity model in rabbit stifles. The source says:
Rabbits were euthanized two weeks post-injection. Both left and right stifles were harvested and immediately fixed in 10% neutral buffered formalin, then set for histological processing. Five-micron thick slides from each knee were stained with Hematoxylin & Eosin and Safranin-O.

The conditions of data set [3]: compared with dendrimers containing more nitroxyl groups; cited from earlier work.

We go through 1 substance from patent US9943613B2, “DAB-4 linked nitroxide citrate, useful as MRI contrast agent” (priority 2012, dated 2018).

Take “Citric Acid Salt of DAB-4 Linked Nitroxide [DAB-4 linked nitroxide citrate]”: the MTT metabolic activity entry in data set [1] was “more metabolic activity than the maleate or tartrate salts”. Moreover, in data set [2] (single intra-articular injection, two weeks observation), the “clinical signs of inflammation or lameness” value is “No animals presented clinical signs of inflammation or lameness”. Besides, the “Modified Mankin scoring (structural damage / joint degeneration)” value in data set [2] (two weeks post-injection, histology, FIG. 6) is on record as “did not uncover any signs of structural damage and/or degenerative response”. The relaxivity result in data set [3] is “lower relaxivity than such dendrimers containing more nitroxyl-groups”.
